Assays:
Assay type in all cases: cell-based
[1] = test system: human breast cancer cell HCC1806; experiment: Proliferation of HCC1806 cells, MTT assay; settings: HCC1806, 72 h, 3 days treatment, read-out: IC50 (inhibition of proliferation of HCC1806)
Method: Newly revived HCC1806 cells (purchased from Guangzhou Genio) were cultured and passaged for at least three generations before use. Cells were used at 90% confluency for experiments. Cells were digested with trypsinase and centrifuged at 800 rpm for 5 minutes. The cell pellets were resuspended in fresh RPMI1640 medium and cells were counted. Cells were seeded on 96-well cell culture plates at 2000 cells/well and incubated overnight at 37° C., 5% CO2. The stock solutions of the test substances (including the test compounds and the reference compound) were serially diluted to 8 concentrations with DMSO at a ratio of 1:3. Five μL of each of the serially diluted solutions were added to 120 μL of medium (diluted by 25 times) and mixed by shaking. The medium of cells cultured overnight was replaced by 195 μL/well of fresh medium and 5 μL/well of diluted medium containing test compounds. The cell culture plates were returned to incubator at 37° C., 5% CO2 for 3 days. At the end of treatment the cell viability was determined by MTT colorimetric assay. […] Medium was then discarded and 100 μL/well of DMSO was added, the plates were shaken for 10 minutes in darkness and the absorbances were measured at the wavelengths of 552/690 nm in a multi-function reader.
(§1) Data was analyzed by GraphPad Prism 6.0. […]

[2] = test system: human pancreatic cancer cell SW1990; experiment: Proliferation of SW1990 cells, MTT assay; settings: SW1990, 120 h, 5 days treatment, read-out: IC50 (inhibition of proliferation of SW1990)
Method: Newly revived SW1990 cells (purchased from Shanghai Fuheng Biology) were cultured and passaged for at least three generations before use. Cells were used at about 90% confluency for experiments. Cells were digested with trypsinase and centrifuged at 800 rpm for 5 minutes. The cell pellets were resuspended in fresh DMEM medium and cells were counted. Cells were seeded on 96-well cell culture plates at 5000 cells/well and incubated overnight at 37° C., 5% CO2. The stock solutions of the test substances (including the test compounds and the reference compound) were serially diluted to 8 concentrations with DMSO at a ratio of 1:3. 5 μL of each serially diluted solutions was added to 120 μL of medium (diluted by 25 times) and mixed by shaking. The medium of cells cultured overnight was replaced by 195 μL/well of fresh medium and 5 μL/well of diluted medium containing test compounds. The cell culture plates were returned to incubator at 37° C. and 5% CO2 for 5 days. At the end of the treatment the cell viability was determined by MTT colorimetric assay. […] The plates were shaken for 10 minutes in darkness and the absorbances were measured at wavelengths of 552/690 nm in a multi-function reader.
as §1

[3] = test system: human colon cancer cell LoVo; experiment: Proliferation of LoVo cells, MTT assay; settings: 96 h, 4 days treatment, read-out: IC50 (inhibition of proliferation of LoVo)
Method: Newly revived LoVo cells (purchased from Shanghai Cell Institute) were cultured and passaged for at least three generations before use. Cells were used at 90% confluence for experiment. Cells were digested with trypsinase and centrifuged at 800 rpm for 5 minutes and the supernatant was discarded. The cell pellets were resuspended in fresh RPMI1640 medium and counted. Cells were seeded on 96-well cell culture plates at 5000 cells/well and incubated overnight at 37° C., 5% CO2. The stock solutions of the test substances (including the test compounds and the reference compound) were serially diluted to 8 concentrations with DMSO at a ratio of 1:3. 5 μL of each series diluted solutions was added to 120 μL of medium (diluted by 25 times) and mixed by shaking. The medium of the cells cultured overnight was replaced by 195 μL/well of fresh medium and 5 μL/well of diluted medium containing test compound. The cell culture plates were returned to incubator at 37° C. and 5% CO2 for 4 days. At the end of treatment, the cell viability was determined by MTT colorimetric assay. […] The plates were shaken for 10 minutes in darkness and the absorbance was measured at wavelengths of 552/690 nm in a multi-function reader.
as §1

IC50 [1]: 3.5 nM
IC50 [2]: 3.3 nM
IC50 [3]: 5.56 nM
SMILES: COc1cccc(OCCCN)c1-c1cc(Nc2cnc(C#N)cn2)n[nH]1 [LY2606368, reference compound]

Source: patent US12492197B2, “3,5-disubstituted pyrazole compounds as kinase inhibitors and uses thereof” (IMPACT THERAPEUTICS (SHANGHAI), INC, priority 2019, dated 2025)
